# Calls of active or inactive are those of the source. No cut-off for these calls is given here.
# Amino acid sequences for entries named in this document (tags omitted). A change or cut given only in a name is not applied to a line headed by its entry.
# UniProt P06276, whole entry, looked up: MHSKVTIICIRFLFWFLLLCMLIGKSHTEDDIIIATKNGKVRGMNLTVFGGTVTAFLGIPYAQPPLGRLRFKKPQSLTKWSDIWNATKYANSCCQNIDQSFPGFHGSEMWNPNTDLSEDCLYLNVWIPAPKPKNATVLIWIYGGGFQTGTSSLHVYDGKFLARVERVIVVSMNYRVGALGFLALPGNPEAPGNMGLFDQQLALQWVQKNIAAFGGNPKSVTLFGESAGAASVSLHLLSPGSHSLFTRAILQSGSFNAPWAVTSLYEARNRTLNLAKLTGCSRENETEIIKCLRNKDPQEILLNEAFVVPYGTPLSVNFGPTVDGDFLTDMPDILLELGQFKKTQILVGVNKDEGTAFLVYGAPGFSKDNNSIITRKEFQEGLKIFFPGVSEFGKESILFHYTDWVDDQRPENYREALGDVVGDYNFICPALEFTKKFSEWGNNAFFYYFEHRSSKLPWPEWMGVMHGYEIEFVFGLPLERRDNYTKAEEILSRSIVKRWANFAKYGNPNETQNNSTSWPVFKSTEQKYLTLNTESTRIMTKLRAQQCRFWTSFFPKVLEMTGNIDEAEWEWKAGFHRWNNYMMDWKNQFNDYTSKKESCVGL
# UniProt P22303: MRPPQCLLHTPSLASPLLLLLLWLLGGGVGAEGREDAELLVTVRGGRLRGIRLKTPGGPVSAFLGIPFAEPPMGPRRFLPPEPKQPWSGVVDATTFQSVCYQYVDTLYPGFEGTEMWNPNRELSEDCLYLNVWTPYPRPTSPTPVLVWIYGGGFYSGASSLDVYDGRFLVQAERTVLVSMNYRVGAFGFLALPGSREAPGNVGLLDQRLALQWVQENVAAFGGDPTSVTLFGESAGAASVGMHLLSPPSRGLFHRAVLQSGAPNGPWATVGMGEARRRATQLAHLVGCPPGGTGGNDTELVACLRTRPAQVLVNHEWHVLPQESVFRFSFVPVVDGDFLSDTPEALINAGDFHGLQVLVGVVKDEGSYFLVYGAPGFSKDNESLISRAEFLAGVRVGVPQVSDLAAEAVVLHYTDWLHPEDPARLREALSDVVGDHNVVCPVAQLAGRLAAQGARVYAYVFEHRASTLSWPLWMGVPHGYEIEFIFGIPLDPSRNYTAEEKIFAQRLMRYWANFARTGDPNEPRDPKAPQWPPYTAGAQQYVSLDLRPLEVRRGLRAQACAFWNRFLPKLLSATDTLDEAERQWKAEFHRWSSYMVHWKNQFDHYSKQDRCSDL
# Legend:
# [1] = target: T1, Cholinesterases; ACHE & BCHE (Homo sapiens) (UniProt P06276+P22303); experiment: Selectivity ratio of Ki for human plasma BChE to Ki for human erythrocytic AChE
# [2] = target: Acetylcholinesterase (Homo sapiens) (UniProt P22303); experiment: Reactivation of VX-inhibited human recombinant AChE using acetylthiocholine iodide as substrate assessed as maximal first-order reactivation rate by Ellman spectrophotometric method
# [3] = target: Acetylcholinesterase (Homo sapiens) (UniProt P22303); experiment: Reactivation of sarin-inhibited AChE in whole human blood assessed as sarin degradation at 0.1 mM after 30 to 60 secs by spectrophotometric analysis; design: scale not given: the % may be the effect or the level left
# [4] = target: Acetylcholinesterase (Homo sapiens) (UniProt P22303); experiment: Reactivation of tabun-inhibited human erythrocytic AChE using acetylthiocholine iodide as substrate assessed as dissociation constant of conjugated enzyme-oxime complex by Ellman spectrophotometric method
# [5] = target: Acetylcholinesterase (Homo sapiens) (UniProt P22303); experiment: Reactivation of cyclosarin-inhibited human recombinant AChE using acetylthiocholine iodide as substrate assessed as time required for maximal percentage of reactivation by Ellman spectrophotometric method
# [6] = target: Acetylcholinesterase (Homo sapiens) (UniProt P22303); experiment: Reactivation of sarin-inhibited human recombinant AChE using acetylthiocholine iodide as substrate assessed as time required for maximal percentage of reactivation by Ellman spectrophotometric method
# [7] = target: Acetylcholinesterase (Homo sapiens) (UniProt P22303); experiment: Reactivation of VX-inhibited AChE in whole human blood assessed as VX degradation at 0.1 mM after 45 mins by spectrophotometric analysis; design: scale not given: the % may be the effect or the level left
# [8] = target: Cholinesterase (Homo sapiens) (UniProt P06276); experiment: Reactivation of VX-inhibited BChE in whole human blood assessed as VX degradation at 0.1 mM after 45 mins by spectrophotometric analysis; design: scale not given: the % may be the effect or the level left
# [9] = target: Acetylcholinesterase (Homo sapiens) (UniProt P22303); experiment: Reactivation of tabun-inhibited human erythrocytic AChE using acetylthiocholine iodide as substrate assessed as maximal first-order reactivation rate by Ellman spectrophotometric method
# [10] = target: Cholinesterase (Homo sapiens) (UniProt P06276); experiment: Reactivation of sarin-inhibited BChE in whole human blood assessed as sarin degradation at 0.1 mM after 30 to 60 secs by spectrophotometric analysis; design: scale not given: the % may be the effect or the level left
# [11] = target: Acetylcholinesterase (Homo sapiens) (UniProt P22303); experiment: Reactivation of VX-inhibited human recombinant AChE using acetylthiocholine iodide as substrate assessed as dissociation constant of conjugated enzyme-oxime complex by Ellman spectrophotometric method
# [12] = target: Acetylcholinesterase (Homo sapiens) (UniProt P22303); experiment: Reactivation of tabun-inhibited human erythrocytic AChE using acetylthiocholine iodide as substrate assessed as overall second-order reactivation rate by Ellman spectrophotometric method
# [13] = target: Cholinesterase (Homo sapiens) (UniProt P06276); experiment: Reactivation of sarin-inhibited BChE in whole human blood assessed as sarin degradation at 0.1 mM after 90 mins by spectrophotometric analysis; design: scale not given: the % may be the effect or the level left
# [14] = target: Acetylcholinesterase (Homo sapiens) (UniProt P22303); experiment: Reactivation of sarin-inhibited human recombinant AChE using acetylthiocholine iodide as substrate assessed as dissociation constant of conjugated enzyme-oxime complex by Ellman spectrophotometric method
# [15] = target: Acetylcholinesterase (Homo sapiens) (UniProt P22303); experiment: Reactivation of sarin-inhibited human recombinant AChE using acetylthiocholine iodide as substrate assessed as overall second-order reactivation rate by Ellman spectrophotometric method
# [16] = target: Acetylcholinesterase (Homo sapiens) (UniProt P22303); experiment: Reactivation of cyclosarin-inhibited human recombinant AChE using acetylthiocholine iodide as substrate assessed as dissociation constant of conjugated enzyme-oxime complex by Ellman spectrophotometric method
# [17] = target: Acetylcholinesterase (Homo sapiens) (UniProt P22303); experiment: Reactivation of VX-inhibited AChE in whole human blood assessed as VX degradation at 0.1 mM after 30 to 60 secs by spectrophotometric analysis; design: scale not given: the % may be the effect or the level left
# [18] = target: Acetylcholinesterase (Homo sapiens) (UniProt P22303); experiment: Reactivation of VX-inhibited human recombinant AChE at 500 uM using acetylthiocholine iodide as substrate by Ellman spectrophotometric method relative to control
# [19] = target: Acetylcholinesterase (Homo sapiens) (UniProt P22303); experiment: Reactivation of tabun-inhibited human erythrocytic AChE using acetylthiocholine iodide as substrate assessed as time required for maximal percentage of reactivation by Ellman spectrophotometric method
# [20] = target: Acetylcholinesterase (Homo sapiens) (UniProt P22303); experiment: Reactivation of sarin-inhibited human recombinant AChE using acetylthiocholine iodide as substrate assessed as maximal first-order reactivation rate by Ellman spectrophotometric method
# [21] = target: Acetylcholinesterase (Homo sapiens) (UniProt P22303); experiment: Reactivation of cyclosarin-inhibited human recombinant AChE using acetylthiocholine iodide as substrate assessed as maximal first-order reactivation rate by Ellman spectrophotometric method
# [22] = target: Acetylcholinesterase (Homo sapiens) (UniProt P22303); experiment: Reactivation of cyclosarin-inhibited human recombinant AChE using acetylthiocholine iodide as substrate assessed as overall second-order reactivation rate by Ellman spectrophotometric method
# [23] = target: Acetylcholinesterase (Homo sapiens) (UniProt P22303); experiment: Reactivation of VX-inhibited human recombinant AChE using acetylthiocholine iodide as substrate assessed as time required for maximal percentage of reactivation at 500 uM by Ellman spectrophotometric method
# [24] = target: Acetylcholinesterase (Homo sapiens) (UniProt P22303); experiment: Reactivation of cyclosarin-inhibited human recombinant AChE using acetylthiocholine iodide as substrate by Ellman spectrophotometric method relative to control
# [25] = target: Acetylcholinesterase (Homo sapiens) (UniProt P22303); experiment: Reactivation of tabun-inhibited human erythrocytic AChE using acetylthiocholine iodide as substrate by Ellman spectrophotometric method relative to control
# [26] = target: Acetylcholinesterase (Homo sapiens) (UniProt P22303); experiment: Reactivation of VX-inhibited human recombinant AChE using acetylthiocholine iodide as substrate assessed as overall second-order reactivation rate by Ellman spectrophotometric method
# [27] = target: Acetylcholinesterase (Homo sapiens) (UniProt P22303); experiment: Reactivation of sarin-inhibited AChE in whole human blood assessed as sarin degradation at 0.1 mM after 90 mins by spectrophotometric analysis; design: scale not given: the % may be the effect or the level left
# [28] = target: Cholinesterase (Homo sapiens) (UniProt P06276); experiment: Reactivation of VX-inhibited BChE in whole human blood assessed as VX degradation at 0.1 mM after 30 to 60 secs by spectrophotometric analysis; design: scale not given: the % may be the effect or the level left
# [29] = target: Acetylcholinesterase (Homo sapiens) (UniProt P22303); experiment: Reactivation of sarin-inhibited human recombinant AChE using acetylthiocholine iodide as substrate by Ellman spectrophotometric method relative to control
# [30] = target: Acetylcholinesterase (Homo sapiens) (UniProt P22303); experiment: Reactivation of cyclosarin-inhibited AChE in whole human blood assessed as cyclosarin degradation at 0.1 mM after 5 mins by spectrophotometric analysis
# [31] = target: Acetylcholinesterase (Homo sapiens) (UniProt P22303); experiment: Reactivation of VX-inhibited human recombinant AChE at 200 uM using acetylthiocholine iodide as substrate by Ellman spectrophotometric method relative to control
# [32] = target: Cholinesterase (Homo sapiens) (UniProt P06276); experiment: Reactivation of VX-inhibited BChE in whole human blood assessed as VX degradation at 0.1 mM after 10 mins by spectrophotometric analysis
# [33] = target: Acetylcholinesterase (Homo sapiens) (UniProt P22303); experiment: Reactivation of sarin-inhibited AChE in whole human blood assessed as sarin degradation at 0.1 mM after 10 mins by spectrophotometric analysis
# [34] = target: Cholinesterase (Homo sapiens) (UniProt P06276); experiment: Reactivation of cyclosarin-inhibited BChE in whole human blood assessed as cyclosarin degradation at 0.1 mM after 5 mins by spectrophotometric analysis
# [35] = target: Cholinesterase (Homo sapiens) (UniProt P06276); experiment: Reactivation of sarin-inhibited BChE in whole human blood assessed as sarin degradation at 0.1 mM after 10 mins by spectrophotometric analysis
# [36] = target: Acetylcholinesterase (Homo sapiens) (UniProt P22303); experiment: Reactivation of tabun-inhibited human recombinant AChE using acetylthiocholine iodide as substrate by Ellman spectrophotometric method relative to control
# [37] = target: Acetylcholinesterase (Homo sapiens) (UniProt P22303); experiment: Reactivation of VX-inhibited AChE in whole human blood assessed as VX degradation at 0.1 mM after 10 mins by spectrophotometric analysis
# [38] = target: Acetylcholinesterase (Homo sapiens) (UniProt P22303); experiment: Reactivation of VX-inhibited human recombinant AChE using acetylthiocholine iodide as substrate assessed as time required for maximal percentage of reactivation at 200 uM by Ellman spectrophotometric method
# [39] = target: T1, Cholinesterases; ACHE & BCHE (Homo sapiens); experiment: Selectivity ratio of Ki for human plasma BChE to Ki for recombinant human AChE
# [40] = target: Acetylcholinesterase (Homo sapiens) (UniProt P22303); experiment: Reactivation of tabun-inhibited human recombinant AChE using acetylthiocholine iodide as substrate assessed as time required for maximal percentage of reactivation by Ellman spectrophotometric method
structure (smiles),measurement,setting,value
NC(=O)c1cc[n+](CCC[n+]2ccc(/C=N/O)cc2)cc1,Ratio Ki,[1],9
same,K,[2],1.1 min⁻¹
same,Activity,[3],< 25%
same,K,[4],85 µM
same,TIME,[5],0.0833 h
same,TIME,[6],0.333 h
same,Activity,[7],80 to 85%
same,Activity,[8],80 to 85%
same,K,[9],0.032 min⁻¹
same,Activity,[10],< 25%
same,K,[11],920 µM
same,K,[12],6.33 M⁻¹ s⁻¹
same,Activity,[13],80 to 85%
same,K,[14],320 µM
same,K,[15],60.7 M⁻¹ s⁻¹
same,K,[16],400 µM
same,Activity,[17],< 25%
same,%max,[18],100%
same,TIME,[19],3 h
same,K,[20],1.2 min⁻¹
same,K,[21],1.2 min⁻¹
same,K,[22],48.3 M⁻¹ s⁻¹
same,TIME,[23],0.333 h
same,%max,[24],100%
same,%max,[25],100%
same,K,[26],19.7 M⁻¹ s⁻¹
same,Activity,[27],80 to 85%
same,Activity,[28],< 25%
same,%max,[29],80%
NC(=O)c1cc[n+](CCC[n+]2cc(Cl)c(/C=N/O)c(Cl)c2)cc1,Activity,[30],Active
same,K,[2],0.53 min⁻¹
same,TIME,[5],0.0167 h
same,TIME,[6],0.167 h
same,%max,[31],100%
same,K,[11],70 µM
same,K,[14],35 µM
same,Activity,[32],Active
same,Activity,[33],Active
same,K,[15],200 M⁻¹ s⁻¹
same,K,[16],160 µM
same,Activity,[34],Active
same,Activity,[35],Active
same,%max,[36],20%
same,K,[20],0.43 min⁻¹
same,Activity,[37],Active
same,K,[21],4.2 min⁻¹
same,K,[22],432 M⁻¹ s⁻¹
same,TIME,[38],0.167 h
same,Ratio Ki,[39],9.3
same,%max,[24],100%
same,K,[26],128 M⁻¹ s⁻¹
same,TIME,[40],24 h
same,%max,[29],80%

# Source: ChEMBL document CHEMBL4257577, “Pyridinium Oximes with Ortho-Positioned Chlorine Moiety Exhibit Improved Physicochemical Properties and Efficient Reactivation of Human Acetylcholinesterase Inhibited by Several Nerve Agents” (2018)
